Drawing on patent US7601850B2, “Phenyl-thiophene type vitamin D receptor modulators” (Eli Lilly and Company, priority 2002, dated 2009), this text covers EC50 for one molecule.

By UniProt entry, the sequences of proteins in these tests, tags left out. Residues count along the entry.
UniProt P11473, 127-423 limits assumed: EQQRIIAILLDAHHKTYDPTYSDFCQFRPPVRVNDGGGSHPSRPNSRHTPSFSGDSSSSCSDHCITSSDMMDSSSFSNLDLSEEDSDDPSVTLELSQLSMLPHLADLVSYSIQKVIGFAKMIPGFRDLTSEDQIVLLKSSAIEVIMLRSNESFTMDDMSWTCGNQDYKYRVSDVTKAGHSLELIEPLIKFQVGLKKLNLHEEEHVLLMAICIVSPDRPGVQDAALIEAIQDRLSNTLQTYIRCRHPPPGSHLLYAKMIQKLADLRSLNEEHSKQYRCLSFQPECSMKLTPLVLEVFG

pEC50: −log10 of the molar value.

One assay addresses VDR (Homo sapiens, UniProt P11473). As to the kind of experiment: VDR CTF (Caco-2 cell co-transfection assay). The class given is cell-based. The following applies: read-out: VDR CTF (Caco-2 cells) EC50.
The target of a further assay is RXR-VDR heterodimer (Homo sapiens, UniProt P11473). As to the kind of experiment: RXR-VDR heterodimerization assay (SaOS-2 cells). Format: cell-based. The following applies: read-out: RXR-VDR (SaOS-2 cells) EC50.

On to `CCC(CC)(c1ccc(OCC(=O)Nc2nnn[nH]2)c(C)c1)c1cc(C)c(CCC(O)C(C)(C)C)s1` (single isomer, unassigned), for which the values for the pEC50 on VDR and on RXR-VDR heterodimer were 5.91 and 6.13, respectively.
